Assay results as given in patent US12310933B2, “Treatment of demyelinating disorders” (The University of Chicago, priority 2013, dated 2025).

Legend:
[1] = test system: differentiating rat oligodendrocyte precursor cells (drOPCs); test: FDA/PI (fluorescein-diacetate/propidium iodide) live/dead cell viability assay, IFN-γ challenge; assay type: cell-based; settings: 5.0 μM guanabenz + 200 U/ml IFN-γ, 48 hours
Description: Example 1: guanabenz protects differentiating rat oligodendrocyte precursor cells (drOPCs) against interferon-γ induced cell death (FIG. 2A). Interferon-γ is an inflammatory cytokine that is thought to contribute to multiple sclerosis exacerbations, therefore, treatment of cultured cells of the oligodendrocyte lineage with interferon-γ provides a useful cellular model of MS-related inflammation. drOPCs were isolated and purified to >95% homogeneity from 6-7 day old Sprague-Dawley rat cortices by immunopanning as previously described (Chan et al. 2004 Neuron 43:2; 183-191). Briefly, rat cortices were extracted, diced, and digested with papain at 37° C. Cells were then triturated and resuspended in panning buffer containing insulin, then sequentially immunopanned at room temperature on three plates containing Ran-2, GalC, and O4 antibodies from hybridomal supernatant. […] Following 48 hours of treatment, media was removed and the cells were incubated in FDA/PI (fluorescein-diacetate/propidium iodide) for 3 minutes, rinsed with 1×PBS, and imaged for live/dead cell quantification. In living cells, non-fluorescent FDA is converted into fluorescein, giving off a bright green fluorescence. […] FIG. 2B illustrates the quantitation of the experiment in FIG. 2a. […]

[2] = mouse, in vivo, ip
Experimental: Mice were then given a final injection before serum was collected 2, 4, or 12 hours later via submandibular bleed. Immediately following blood draw, mice were perfused with 0.9% NaCl and their brains collected and weighed. […] Data represents mean±SD. FIG. 9 depicts the same data, with brain and serum concentrations expressed as μM values. […] Data represents mean±SD.

[3] = test system: mice immunized with MOG35-55-specific EAE; test: Inflammatory ear-swelling response to local injection of MOG35-55 in EAE mice; assay type: in vivo, mouse; settings: 8 mg/kg daily IP PID 7 to PID 19; MOG35-55 challenge PID 17, read 48 hours later
Experimental: Example 9: guanabenz reduces inflammatory immune responses to myelin proteins in an in vivo mouse model of EAE (FIG. 10). Mice immunized with MOG35-55-specific EAE (as described herein) were treated with vehicle or 8 mg/kg guanabenz daily IP from PID 7 to PID 19. On PID 17, mice were challenged via a single injection of 10 μg of MOG35-55 peptide solubilized in 10 μl of 1×PBS in the dorsal surface of the left ear and 10 μg of PLP178-191 peptide in 10 μl 1×PBS in the right ear. Response was assessed 48 hours later by measuring ear thickness. […] N=8-9/group. (**p<0.005, ***p<0.0005)

clearance from serum and brain [2]: quickly cleared in both serum and brain
SMILES: N=C(N)N/N=C/c1c(Cl)cccc1Cl [guanabenz]
cell viability (green/red cell ratio, FDA/PI) [1]: increased the green/red cell ratio back to control levels
mean ear swelling relative to vehicle-administered subjects [3]: about one-third
